Experimental data as given in US20010003002A1.

Legend:
[1] = for Level of serum calcium, change after administration: 500 mg calcium oral after overnight fast, 4 h after load vs just before load, FIG. 1, mg/dl; for Level of urinary calcium, change after administration: urine 4 h after load vs two-hour fasting urine, FIG. 2, mg/dl GF
[2] = Bulk density of granulated PCC composition (Archimedean method); details: granulated material; examples written in present tense (paper examples)

| Substance | Level of serum calcium, change after administration [1] | Experimental value of serum calcium versus placebo ([1]; 500 mg calcium oral, 4 h after load, FIG. 1) | Level of urinary calcium, change after administration ([1]; 500 mg calcium oral) | Experimental value of urinary calcium versus placebo ([1]; 500 mg calcium oral, urine 4 h after load, FIG. 2) | Bulk density [2] |
| --- | --- | --- | --- | --- | --- |
| potassium calcium citrate | increased | Significantly higher | increased | Significantly higher | about 1.05 g/cc |
| calcium citrate | increased | – | increased | – | – |
